Measurements: patent US20050180991A1, “Hypotensive agent and food” (priority 2004, published 2005)

Experiment: Body weight of SHR rats during daily oral dosing
Assay type: in vivo, rat
Settings: n=10, oral once daily, CM6271 300 mg/kg, hydralazine 5 mg/kg
Source text: Figures in Table 1 represent mean±SD (standard deviation).

NNc1nncc2ccccc12 [Hydralazine, hydralazine]
Body weight (g) Day 1 (Day 1 (first day of dosing), mean±SD): 232.3 ± 16.1 g
Body weight (g) Day 8 (Day 8, mean±SD): 246.0 ± 12.5 g
